Paper PMC8606745 (Frontiers in Microbiology, 2021)

Tested on: tobacco leaves
Experiment: Effect of peptide infiltration on tobacco leaves
Conditions: 100 μl infiltrated into mesophyll of tobacco leaves, 48 h, three inoculations, ± confidence interval (α=0.05)

Row | Compound | Leaf infiltration effect (lesion diameter) (50 µM) [mm] | Leaf infiltration effect (lesion diameter) (100 µM) [mm] | Leaf infiltration effect (lesion diameter) (150 µM) [mm]
1 | CC[C@H](C)[C@H](NC(=O)[C@H](CCCNC(=N)N)NC(=O)[C@H](CCCNC(=N)N)NC(=O)[C@H](CC(C)C)NC(=O)[C@H](Cc1c[nH]c2ccccc12)NC(=O)[C@H](C)NC(=O)[C@H](CCCCN)NC(=O)[C@@H](NC(=O)[C@H](CCCNC(=N)N)NC(=O)[C@H](CCCNC(=N)N)NC(=O)[C@H](CC(C)C)NC(=O)[C@@H](N)Cc1c[nH]c2ccccc12)[C@@H](C)CC)C(=O)N[C@@H](CCCCN)C(=O)N[C@@H](C)C(N)=O [RR4-NH2] | 4.33 ± 0.65 | 6.67 ± 0.65 | 9.00 ± 1.13
2 | CC[C@H](C)[C@H](NC(=O)[C@H](CCCNC(=N)N)NC(=O)[C@H](CCCNC(=N)N)NC(=O)[C@H](CC(C)C)NC(=O)[C@@H](N)Cc1c[nH]c2ccccc12)C(=O)N[C@@H](CCCCN)C(=O)N[C@@H](C)C(=O)N[C@@H](Cc1c[nH]c2ccccc12)C(=O)N[C@@H](CC(C)C)C(=O)N[C@@H](CCCNC(=N)N)C(=O)N[C@@H](CCCNC(=N)N)C(=O)N[C@@H](CCCCN)C(=O)N[C@@H](CCCNC(=N)N)C(=O)N[C@@H](CCCCN)C(N)=O [RR3-NH2] | 3 ± 1.13 | 5.33 ± 1.73 | 8.67 ± 1.31
3 | CC[C@H](C)[C@H](NC(=O)[C@H](C)NC(=O)[C@H](CCCCN)NC(=O)[C@@H]1CCCN1C(=O)[C@@H](NC(=O)[C@H](CC(C)C)NC(=O)[C@H](CO)NC(=O)[C@H](Cc1ccccc1)NC(=O)[C@H](CC(C)C)NC(=O)[C@@H](N)Cc1ccccc1)[C@@H](C)CC)C(=O)NCC(=O)NCC(=O)N[C@@H](CC(C)C)C(=O)N[C@H](C(=O)N[C@@H](CO)C(=O)N[C@@H](C)C(=O)N[C@@H](Cc1ccccc1)C(=O)N[C@@H](CCCCN)C(N)=O)[C@@H](C)CC [AamAP-S1] | 5.33 ± 0.65 | 11.00 ± 2.99 | 17.67 ± 0.65
4 | CC[C@H](C)[C@H](NC(=O)[C@H](CCCNC(=N)N)NC(=O)[C@H](Cc1ccccc1)NC(=O)[C@H](CCCNC(=N)N)NC(=O)[C@@H](N)CCCCN)C(=O)N[C@@H](CCCNC(=N)N)C(=O)N[C@H](C(=O)N[C@@H](CCCNC(=N)N)C(=O)N[C@H](C(N)=O)C(C)C)C(C)C [Peptide 1037] | 4.33 ± 1.31 | 6.33 ± 1.73 | 9.67 ± 1.31
5 | CC[C@H](C)[C@H](N)C(=O)N[C@@H](CC(C)C)C(=O)N1CCC[C@H]1C(=O)N[C@H](Cc1ccccc1)C(=O)N[C@@H](CCCCN)C(=O)N[C@H](Cc1ccccc1)C(=O)N1CCC[C@H]1C(=O)N[C@H](Cc1ccccc1)C(=O)N[C@H](Cc1ccccc1)C(=O)N1CCC[C@H]1C(=O)N[C@H](Cc1ccccc1)C(=O)N[C@@H](CCCNC(=N)N)C(=O)N[C@@H](CCCNC(=N)N)C(N)=O [BP525] | 4 ± 1.96 | 5.33 ± 0.65 | 8.67 ± 0.65
6 | CC[C@H](C)[C@H](NC(=O)[C@H](C)NC(=O)[C@H](CCCNC(=N)N)NC(=O)[C@@H]1CCCN1C(=O)[C@@H](NC(=O)[C@H](CC(C)C)NC(=O)[C@H](CO)NC(=O)[C@H](Cc1ccccc1)NC(=O)[C@H](CC(C)C)NC(=O)[C@@H](N)Cc1ccccc1)[C@@H](C)CC)C(=O)NCC(=O)NCC(=O)N[C@@H](CC(C)C)C(=O)N[C@H](C(=O)N[C@@H](CO)C(=O)N[C@@H](C)C(=O)N[C@@H](Cc1ccccc1)C(=O)N[C@@H](CCCCN)C(N)=O)[C@@H](C)CC [AamAP-R] | 5.33 ± 0.65 | 10.67 ± 2.36 | 13.67 ± 3.64
7 | CC[C@H](C)[C@H](NC(=O)CN)C(=O)NCC(=O)N[C@@H](CCCCN)C(=O)N[C@@H](Cc1ccccc1)C(=O)N[C@@H](CC(C)C)C(=O)N[C@@H](Cc1c[nH]cn1)C(=O)N[C@@H](CO)C(=O)N[C@@H](C)C(=O)N[C@@H](CCCCN)C(N)=O [Magainin 2(1-10)] | 0 ± 0 | 0.00 ± 0.00 | 0.00 ± 0.00
8 | CC[C@H](C)[C@H](NC(=O)[C@H](CCCNC(=N)N)NC(=O)[C@H](Cc1ccccc1)NC(=O)[C@H](CCC(N)=O)NC(=O)[C@@H](N)CCCCN)C(=O)N[C@@H](CCCNC(=N)N)C(=O)N[C@H](C(=O)N[C@@H](CCCNC(=N)N)C(=O)N[C@H](C(N)=O)C(C)C)C(C)C [Peptide 1029] | 0.33 ± 0.65 | 5.00 ± 0.00 | 8.00 ± 1.13
9 | CC[C@@H](C)[C@@H](NC(=O)[C@H](N)CCCNC(=N)N)C(=O)N[C@@H](C(=O)N[C@H](Cc1c[nH]c2ccccc12)C(=O)N[C@@H](C(=O)N[C@H](CCCNC(=N)N)C(=O)N[C@@H](C(=O)N[C@H](CCCNC(=N)N)C(=O)N[C@H](CCCNC(=N)N)C(=O)N[C@H](Cc1c[nH]c2ccccc12)C(=O)N[C@H](Cc1ccccc1)C(=O)N[C@@H](C(N)=O)C(C)C)[C@H](C)CC)C(C)C)C(C)C [RIJK2] | 2.33 ± 0.65 | 5.67 ± 0.65 | 8.67 ± 1.31
10 | CC[C@H](C)[C@H](NC(=O)[C@H](CCCNC(=N)N)NC(=O)[C@H](Cc1c[nH]c2ccccc12)NC(=O)[C@H](CCC(N)=O)NC(=O)[C@@H](N)C(C)C)C(=O)N[C@@H](CCCNC(=N)N)C(=O)N[C@H](C(=O)N[C@@H](CCCNC(=N)N)C(=O)N[C@H](C(=O)N[C@H](C(=O)N[C@@H](CCCCN)C(=O)N[C@@H](CCCCN)C(N)=O)[C@@H](C)CC)C(C)C)C(C)C [Peptide 1026] | 4 ± 1.73 | 6.33 ± 1.31 | 7.67 ± 0.65
11 | CC[C@H](C)[C@H](NC(=O)[C@H](CCCNC(=N)N)NC(=O)[C@H](Cc1ccccc1)NC(=O)[C@H](CCC(N)=O)NC(=O)[C@@H](N)C(C)C)C(=O)N[C@@H](CCCNC(=N)N)C(=O)N[C@H](C(=O)N[C@@H](CCCNC(=N)N)C(=O)N[C@H](C(=O)N[C@H](C(=O)N[C@H](C(=O)N[C@@H](CCCNC(=N)N)C(=O)N[C@@H](CCCCN)C(N)=O)[C@@H](C)CC)C(C)C)[C@@H](C)CC)C(C)C [Peptide 1036] | 6 ± 1.13 | 7.00 ± 1.13 | 11.67 ± 0.65
12 | CC[C@H](C)[C@H](NC(=O)[C@H](CCCNC(=N)N)NC(=O)[C@@H](NC(=O)[C@H](Cc1c[nH]c2ccccc12)NC(=O)[C@@H](NC(=O)[C@@H](NC(=O)[C@@H](N)CCCNC(=N)N)[C@@H](C)CC)C(C)C)C(C)C)C(=O)N[C@@H](CCCNC(=N)N)C(=O)N[C@@H](CCCNC(=N)N)C(=O)N[C@@H](Cc1c[nH]c2ccccc12)C(=O)N[C@@H](Cc1ccccc1)C(=O)N[C@H](C(N)=O)C(C)C [RJK2] | 5.67 ± 0.65 | – | –
13 | CC[C@H](C)[C@H](NC(=O)[C@H](Cc1c[nH]c2ccccc12)NC(=O)[C@H](CCCCN)NC(=O)[C@H](CCCCN)NC(=O)[C@@H](NC(=O)[C@H](CCCNC(=N)N)NC(=O)[C@H](CCCNC(=N)N)NC(=O)[C@@H](NC(=O)[C@@H](N)Cc1c[nH]c2ccccc12)[C@@H](C)CC)[C@@H](C)CC)C(=O)N[C@@H](CCCNC(=N)N)C(=O)N[C@@H](CCCNC(=N)N)C(=O)N[C@H](C(=O)N[C@@H](Cc1c[nH]cn1)C(=O)N[C@@H](CCCCN)C(N)=O)C(C)C [RR2-NH2] | 3.33 ± 0.65 | 4.67 ± 0.65 | 9.33 ± 1.73
